From EP0670826B1, “FATTY ACID DERIVATIVES AND PHARMACEUTICAL COMPOSITIONS CONTAINING THEM” (YISSUM RESEARCH DEVELOPMENT COMPANY OF THE HEBREW …, priority 1992, dated 1994)

Sequences of proteins named here, by UniProt entry; tags and fusion partners are left off.
UniProt P20272, whole entry: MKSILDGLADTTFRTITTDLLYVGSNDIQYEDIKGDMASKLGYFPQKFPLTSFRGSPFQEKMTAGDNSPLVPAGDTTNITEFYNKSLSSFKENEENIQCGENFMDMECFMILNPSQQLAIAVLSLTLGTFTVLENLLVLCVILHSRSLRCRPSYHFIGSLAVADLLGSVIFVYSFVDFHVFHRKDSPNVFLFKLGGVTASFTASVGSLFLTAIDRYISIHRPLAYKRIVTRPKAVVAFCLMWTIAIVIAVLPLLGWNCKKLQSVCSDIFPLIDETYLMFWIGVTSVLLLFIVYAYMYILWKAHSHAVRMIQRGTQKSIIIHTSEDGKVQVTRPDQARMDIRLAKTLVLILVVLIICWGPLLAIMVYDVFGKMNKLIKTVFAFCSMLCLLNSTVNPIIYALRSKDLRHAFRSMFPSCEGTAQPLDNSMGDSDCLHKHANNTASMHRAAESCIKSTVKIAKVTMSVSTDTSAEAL

Target: T1, cannabinoid receptor (Rattus norvegicus, UniProt P20272)
T1 construct: Synaptosomal membranes were prepared from rat whole brain-minus brainstem; from tissue; host or cells: rat whole brain minus brainstem, synaptosomal membranes (Sprague-Dawley males)
Experiment: centrifugation radioligand binding assay with [3H]HU-243 on synaptosomal membranes

With `CCCCC/C=C\C/C=C\C/C=C\C/C=C\CCCC(=O)NCCO` [Arachidonylethanolamide, 5,8,11,14-icosatetraenamide, (N,-2-hydroxyethyl)-(all-Z)] the Ki (compounds isolated from the brain and synthesized) was 39 ± 5 nM and the Ki (inhibition of [3H]HU-243 binding, mean ± SE, n=3, listed as Synthetic anandamide) was 39 ± 5 nM.
